Laboratory results reported in PubChem BioAssay (EPA / NIEHS).
This is a selection; strong and weak results do not stand in their true shares. Calls of active or inactive are those of the source. The calls were made as follows: active = hit-call score of the fitted dose curve at least 0.9, where 1 is the maximum; inactive = score below 0.9.

Amino acid sequences for entries named in this document (tags omitted).
UniProt P08684, whole entry, looked up: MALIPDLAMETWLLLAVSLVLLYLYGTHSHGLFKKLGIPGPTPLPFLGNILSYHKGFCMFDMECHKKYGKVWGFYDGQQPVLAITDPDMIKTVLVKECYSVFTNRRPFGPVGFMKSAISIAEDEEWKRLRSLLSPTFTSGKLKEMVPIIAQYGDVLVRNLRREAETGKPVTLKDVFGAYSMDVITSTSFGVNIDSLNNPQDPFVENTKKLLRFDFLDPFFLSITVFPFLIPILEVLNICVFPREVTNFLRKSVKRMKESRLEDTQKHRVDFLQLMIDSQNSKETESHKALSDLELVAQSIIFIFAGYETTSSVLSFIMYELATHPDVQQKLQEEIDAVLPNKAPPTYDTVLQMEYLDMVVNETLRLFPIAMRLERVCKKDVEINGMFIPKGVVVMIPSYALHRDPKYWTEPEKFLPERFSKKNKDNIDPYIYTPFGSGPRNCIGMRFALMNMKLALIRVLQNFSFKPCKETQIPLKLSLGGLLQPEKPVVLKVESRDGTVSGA
UniProt P01133, whole entry, looked up: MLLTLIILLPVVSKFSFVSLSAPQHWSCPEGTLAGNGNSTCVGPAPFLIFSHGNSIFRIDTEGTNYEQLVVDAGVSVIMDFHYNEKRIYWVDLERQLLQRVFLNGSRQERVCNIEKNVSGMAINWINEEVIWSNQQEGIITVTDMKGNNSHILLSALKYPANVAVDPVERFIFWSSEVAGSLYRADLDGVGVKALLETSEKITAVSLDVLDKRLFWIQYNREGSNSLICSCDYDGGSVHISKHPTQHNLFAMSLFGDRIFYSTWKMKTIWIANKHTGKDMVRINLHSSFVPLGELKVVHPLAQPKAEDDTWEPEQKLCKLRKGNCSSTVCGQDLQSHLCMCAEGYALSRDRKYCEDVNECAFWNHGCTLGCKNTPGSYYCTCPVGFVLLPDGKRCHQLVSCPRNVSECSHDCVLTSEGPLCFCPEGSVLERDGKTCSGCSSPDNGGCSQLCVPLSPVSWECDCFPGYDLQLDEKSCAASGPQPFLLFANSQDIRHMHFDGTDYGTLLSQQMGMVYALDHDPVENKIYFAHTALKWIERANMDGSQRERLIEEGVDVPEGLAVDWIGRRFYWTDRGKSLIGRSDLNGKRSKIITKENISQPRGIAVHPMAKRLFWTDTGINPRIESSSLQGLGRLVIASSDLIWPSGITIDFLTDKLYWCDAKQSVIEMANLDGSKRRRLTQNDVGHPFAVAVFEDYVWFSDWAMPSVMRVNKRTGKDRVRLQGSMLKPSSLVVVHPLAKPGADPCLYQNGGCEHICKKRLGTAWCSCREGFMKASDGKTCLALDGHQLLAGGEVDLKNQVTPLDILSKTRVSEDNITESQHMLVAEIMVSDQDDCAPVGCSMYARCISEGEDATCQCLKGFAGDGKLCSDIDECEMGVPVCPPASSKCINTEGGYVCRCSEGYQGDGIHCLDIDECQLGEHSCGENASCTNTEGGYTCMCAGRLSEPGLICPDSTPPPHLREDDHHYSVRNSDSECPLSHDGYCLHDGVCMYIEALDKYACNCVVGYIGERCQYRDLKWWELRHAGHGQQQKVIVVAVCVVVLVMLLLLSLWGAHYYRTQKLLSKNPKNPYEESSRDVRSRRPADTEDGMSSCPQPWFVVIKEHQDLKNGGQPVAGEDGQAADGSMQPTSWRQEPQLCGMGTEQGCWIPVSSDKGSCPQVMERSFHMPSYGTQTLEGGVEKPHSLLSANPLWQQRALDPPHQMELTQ
UniProt P33261, whole entry, looked up: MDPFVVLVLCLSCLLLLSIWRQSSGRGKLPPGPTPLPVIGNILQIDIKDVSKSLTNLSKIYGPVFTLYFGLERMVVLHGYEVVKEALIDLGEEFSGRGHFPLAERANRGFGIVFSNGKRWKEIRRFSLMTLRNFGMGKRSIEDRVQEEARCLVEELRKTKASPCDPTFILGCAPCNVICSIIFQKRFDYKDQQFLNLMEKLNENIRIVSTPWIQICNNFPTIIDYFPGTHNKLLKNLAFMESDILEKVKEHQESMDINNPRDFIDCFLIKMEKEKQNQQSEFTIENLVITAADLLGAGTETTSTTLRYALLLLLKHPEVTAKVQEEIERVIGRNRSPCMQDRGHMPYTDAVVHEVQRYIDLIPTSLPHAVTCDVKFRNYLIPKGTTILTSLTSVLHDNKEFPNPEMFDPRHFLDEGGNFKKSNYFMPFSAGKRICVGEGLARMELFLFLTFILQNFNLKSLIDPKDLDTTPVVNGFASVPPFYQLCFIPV

Tests used:
Details in all cases: actives raise or lower the signal; mRNA level, 48 h
[1] = read-out: Cytochrome P450 (CYP2B6), CYP2B6 (gene 1555); experiment: LTEA_HepaRG_CYP2B6: Life Technologies and Expression Analysis (LTEA) Assay for Cytochrome P450 (CYP2B6) using HepaRG (AID 2283481)
Summary of the method: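 Read-out is CYP2B6 mRNA by TaqMan qRT-PCR, normalized to three housekeeping genes and fitted bidirectionally against 0.5% DMSO baseline. Human HepaRG cells received test chemicals for 48 h, top concentration 100 uM, half-log dilutions.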

CYP2C8 (gene 1558) = experiment: LTEA_HepaRG_CYP2C8: Life Technologies and Expression Analysis (LTEA) Assay for CYP2C8 using HepaRG (AID 2283483)
Summary of the method: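 HepaRG (human liver line), 48 h chemical exposure, 8-pt half-log series from 100 uM, 0.5% DMSO vehicle. Readout: CYP2C8 transcript by qRT-PCR, housekeeping-normalized. Bidirectional fit vs DMSO baseline.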

CYP2C9 (gene 1559) = experiment: LTEA_HepaRG_CYP2C9: Life Technologies and Expression Analysis (LTEA) Assay for CYP2C9 using HepaRG (AID 2283484)
Summary of the method: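 HepaRG, 48 h dosing, 8-pt half-log series, top 100 uM, 0.5% DMSO vehicle. Read-out: CYP2C9 transcript by TaqMan qRT-PCR, housekeeping-normalized (ACTB/GAPDH/POLR2A). Gain or loss fitted vs DMSO baseline.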

CYP4A11 (gene 1579) = experiment: LTEA_HepaRG_CYP4A11: Life Technologies and Expression Analysis (LTEA) Assay for CYP4A11 using HepaRG (AID 2283486)
Summary of the method: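 CYP4A11 transcript levels were quantified by TaqMan qRT-PCR after HepaRG human liver cells were treated for 48 hours with test chemicals (top 100 uM, half-log dilutions, 0.5% DMSO). Gain or loss of signal was fitted relative to DMSO.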

[2] = read-out: Cytochrome P450 3A4 (Homo sapiens) (UniProt P08684); experiment: LTEA_HepaRG_CYP3A4: Life Technologies and Expression Analysis (LTEA) Assay for CYP3A4 using HepaRG (AID 2283487)
Summary of the method: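 In a human hepatic line (HepaRG), duplicate wells were treated 48 h with up to 100 uM chemical in half-log dilutions. Endpoint: CYP3A4 mRNA induction or loss relative to 0.5% DMSO vehicle, by qRT-PCR.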

[3] = read-out: DNA damage-inducible transcript 3 (DDIT3), DDIT3 (gene 1649); experiment: LTEA_HepaRG_DDIT3: Life Technologies and Expression Analysis (LTEA) Assay for DNA damage-inducible transcript 3 (DDIT3) using HepaRG (AID 2283488)
Summary of the method: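 Eight-point concentration-response (100 uM highest, half-log dilutions) in HepaRG, 48 h, duplicate wells. Endpoint: qRT-PCR mRNA, normalized (ACTB, GAPDH, POLR2A), bidirectional fitting with DMSO as baseline.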

[4] = read-out: Pro-epidermal growth factor (Homo sapiens) (UniProt P01133); experiment: LTEA_HepaRG_EGF: Life Technologies and Expression Analysis (LTEA) Assay for Epidermal growth factor (EGF) using HepaRG (AID 2283489)
Summary of the method: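 qRT-PCR readout of EGF transcript after 48 h chemical exposure of HepaRG cells; eight concentrations from 100 uM down in half-log steps, duplicate wells, 0.5% DMSO vehicle. Bidirectional curve fitting against DMSO baseline.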

[5] = read-out: Early growth response protein 1 (EGR1) transcription factor, EGR1 (gene 1958); experiment: LTEA_HepaRG_EGR1: Life Technologies and Expression Analysis (LTEA) Assay for Early growth response protein 1 (EGR1) transcription factor using HepaRG (AID 2283490)
Experimental: LTEA_HepaRG is a cell based, multiplexed-readout assay that uses HepaRG, a human liver cell line, with measurements taken at 48 hours after chemical dosing on a 96-well plate.LTEA_HepaRG_EGR1 is one of 102 assay component(s) measured in the LTEA HepaRG cell culture assay. It is a marker of Cell proliferation, survival, death.Data from the assay component LTEA_HepaRG_EGR1 was analyzed into 1 endpoint. This assay endpoint, LTEA_HepaRG_EGR1, was analyzed with bidirectional fitting relative to DMSO as the negative control and baseline of activity. Using a type of inducible reporter, measures of mRNA induction for gain or loss-of-signal activity can be used to understand regulation of transcription factor activity. To generalize the intended target to other relatable targets, this assay endpoint is annotated to the dna binding intended target family, where the subfamily is zinc finger.
A total of 1060 chemcials from the ToxCast library were tested in eight-point concentration-response experiments. Cell culture and cytotoxicity assays were conducted at Thermo Fisher Scientific's Custom Services facility (Madison, WI). A single lot of human HepaRG cells (Thermo Fisher Scientific, Frederick, MD) was used for the cell culture experiments. 96-well format collagen type I coated plates of human HepaRG cells were prepared using established methods. Briefly, cryopreserved HepaRG cells were thawed, plated at a density of approximately 100,000 cells/well in HepaRG Thaw, Plate, and General Purpose media (HPRG770, Thermo Fisher Scientific), and incubated for 48 hours. 0.5% DMSO was selected as vehicle control to balance the requisite need of DMSO in HepaRG cultures to maintain differentiation (for example, baseline metabolism, proportions of hepatocytes vs. cholangiocytes), while enabling further hepatic receptor pathway activation (for example, PXR and CAR) in response to chemical exposure. 48 hours after plating, the culture medium was replaced with HepaRG Serum-Free Incudtion Media. Cells were exposed to each test chemical in duplicate and maintained in CO2 incubators for another 48 hours. Chemical plates were thawed to room temperature and 200x concentrations of treatment groups were prepared. 8-point conentration-reponse curves were made with the highest exposure at 100 uM, followed by half-log dilutions, all in 0.5% DMSO. […] Fluidigm's 96.96 Dynamic ArrayTM (Fluidigm, Amsterdam, the Netherlands) technology was used for gene expression analyses by quantitative reverse transcription polymerase chain reaction (qRT-PCR, performed by Quintiles/Expression Analysis, Durham, NC)89. […]

[6] = read-out: Cytochrome P450 2C19 (Homo sapiens) (UniProt P33261); experiment: LTEA_HepaRG_CYP2C19: Life Technologies and Expression Analysis (LTEA) Assay for CYP2C19 using HepaRG (AID 2283482)
Summary of the method: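 HepaRG, 48 h chemical exposure, 8-pt half-log series from 100 uM in 0.5% DMSO, duplicates. Readout: CYP2C19 mRNA by TaqMan qRT-PCR, housekeeping-normalized. Bidirectional fit vs DMSO baseline; phenobarbital 1mM as induction control.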

CYP2E1 (gene 1571) = experiment: LTEA_HepaRG_CYP2E1: Life Technologies and Expression Analysis (LTEA) Assay for CYP2E1 using HepaRG (AID 2283485)
Summary of the method: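 Assay uses 48 h exposure of HepaRG hepatic cells, eight concentrations to 100 uM. Expression of CYP2E1 is quantified by TaqMan qRT-PCR with ACTB, GAPDH and POLR2A normalization; curves fitted in both directions relative to vehicle.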

Measured: AC50

Cc1cc([N+](=O)[O-])cc([N+](=O)[O-])c1O
inactive: [5]
active: [1] 6.83 µM | CYP2C8 (gene 1558) 10.8 µM | CYP2C9 (gene 1559) 8.89 µM | CYP4A11 (gene 1579) 10.2 µM | [2] 6.44 µM | [3] 65.9 µM | [4] 3.35 µM

O=C1C2CC=CCC2C(=O)N1SC(Cl)(Cl)C(Cl)Cl (stereo unspecified)
active: [1] 1.52 µM | CYP4A11 (gene 1579) 9.92 µM
not listed: [2] | CYP2E1 (gene 1571)
inactive: all other assays above

CC(C)OP(=S)(OC(C)C)SCCNS(=O)(=O)c1ccccc1
active: [1] 85.3 µM | [6] 85.2 µM | CYP2C8 (gene 1558) 83.7 µM | CYP2C9 (gene 1559) 84.2 µM | CYP2E1 (gene 1571) 10.1 µM | CYP4A11 (gene 1579) 50 µM | [2] 88.5 µM | [3] 72.4 µM | [5] 81 µM
inactive: [4]

CN(C(=O)Cc1cccc2occc12)[C@H]1CC[C@@]2(CCCO2)C[C@@H]1N1CCCC1
active: [1] 13.8 µM | [6] 21.5 µM | CYP2E1 (gene 1571) 30 µM | [2] 21.3 µM
inactive: all other assays above
